# Data as given in patent US10987336B2, “Method of preventing or treating side effect of tumor therapy” (priority 2018, dated 2021).
# This is a selection: effects in other tests are not listed, and their absence says nothing.
# Tested on: HUVEC cells
# Test: CCK-8 cell survival: ameliorating proliferative toxicity of VEGF/VEGFR inhibitor (Examples 4-15)
# Format: cell-based
# Conditions: agent 100 μM, 24-48 h
smiles,measurement,setting,value
O=[N+]([O-])OCC(CO[N+](=O)[O-])(CO[N+](=O)[O-])CO[N+](=O)[O-],Cell Survival Rate (viable cells increased vs VEGF/VEGFR inhibitor group),Regorafenib 10 μM,Increased by 20-25%
same,Cell Survival Rate (viable cells increased vs VEGF/VEGFR inhibitor group),Sorafenib 5 μM,Increased by 30-40%
same,Cell Survival Rate (viable cells increased vs VEGF/VEGFR inhibitor group),Sunitinib 5 μM,Increased by 25-35%
